SMILES strings stand for the structures.

Sequences of proteins named here, by UniProt entry; tags and fusion partners are left off. Residues count along the entry.
UniProt P02768, 25-609: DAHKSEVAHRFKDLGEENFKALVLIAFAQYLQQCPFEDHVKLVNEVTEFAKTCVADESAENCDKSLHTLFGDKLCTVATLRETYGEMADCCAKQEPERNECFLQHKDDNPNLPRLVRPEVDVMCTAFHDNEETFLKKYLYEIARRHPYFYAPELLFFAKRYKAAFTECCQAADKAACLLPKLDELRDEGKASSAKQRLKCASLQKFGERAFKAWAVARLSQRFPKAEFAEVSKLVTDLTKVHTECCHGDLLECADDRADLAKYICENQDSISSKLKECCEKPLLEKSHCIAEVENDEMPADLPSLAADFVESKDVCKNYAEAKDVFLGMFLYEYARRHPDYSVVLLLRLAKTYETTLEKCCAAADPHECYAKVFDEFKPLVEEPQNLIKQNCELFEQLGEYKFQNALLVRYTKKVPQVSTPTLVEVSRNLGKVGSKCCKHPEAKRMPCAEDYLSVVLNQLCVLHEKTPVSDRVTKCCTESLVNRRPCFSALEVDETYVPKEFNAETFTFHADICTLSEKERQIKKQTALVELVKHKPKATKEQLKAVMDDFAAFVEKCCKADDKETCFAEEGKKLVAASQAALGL

This series addresses human serum albumin (Homo sapiens, UniProt P02768). The series can be described thus: binding constant to human serum albumin (TRANSIL technology). The following applies: log binding constant to human serum albumin.
Consider `C[C@]12C[C@H](O)[C@H]3[C@@H](CCC4=CC(=O)CC[C@@]43C)[C@@H]1CC[C@@H]2C(=O)CO` [Corticosterone], for which the LogHSA is −3.886. `C[C@@H]1C[C@H]2[C@@H]3CCC4=CC(=O)C=C[C@]4(C)[C@@]3(F)[C@@H](O)C[C@]2(C)[C@@]1(O)C(=O)CO` [Dexamethasone] gave a LogHSA of −3.114. For `CC(CCc1ccccc1)NCC(O)c1ccc(O)c(C(N)=O)c1` (centres unmarked) [Labetalol] the value was −3.770; for `C[C@]12C=CC(=O)C=C1CC[C@@H]1[C@@H]2[C@@H](O)C[C@@]2(C)[C@H]1CC[C@]2(O)C(=O)CO` [Prednisolone], −3.694.

`COc1cc2nc(N3CCN(C(=O)C4CCCO4)CC3)nc(N)c2cc1OC` (centres unmarked) [Terazosin] displayed a LogHSA of −4.000.

The values above are taken from patent US20050137807A1, “Method of visualization of the ADME properties of chemical substances” (priority 2003, published 2005).
